# Measured affinities in a library of Ab-91 heavy chain variants

Data: MIT Lincoln Laboratory AlphaSeq set, Engelhart et al. 2022, doi:10.1038/s41597-022-01779-4, as distributed in FLAb.

Binding partner: SARS-CoV-2 spike HR2 peptide, sequence PDVDLGDISGINAS.

Ab-91 is the parent antibody, in scFv form: VL, then a (GGGGS)3 linker, then VH. The light chain is unchanged in all variants.
VL: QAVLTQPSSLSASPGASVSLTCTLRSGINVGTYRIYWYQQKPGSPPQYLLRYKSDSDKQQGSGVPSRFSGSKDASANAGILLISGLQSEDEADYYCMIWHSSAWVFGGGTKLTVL
VH: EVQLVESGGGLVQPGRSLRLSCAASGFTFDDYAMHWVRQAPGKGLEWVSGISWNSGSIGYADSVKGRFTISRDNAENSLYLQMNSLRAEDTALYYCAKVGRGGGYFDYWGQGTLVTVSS

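The starting antibody came from a phage panning campaign against this peptide. AAYL51 was designed without a model: most single CDR substitutions and a random sample of double and triple ones. The scFvs were displayed on barcoded MATa yeast, the peptide on MATalpha yeast. Pairs that bind mate more often; barcode pairs of the diploids are counted by sequencing. Read counts were normalised to the haploid input and turned into Kd by a linear fit to BCL2-family pairs of known affinity, for each replicate. There are three technical replicates.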

The parent's heavy chain CDRs are GFTFDDYAMH, GISWNSGSIGYADSVK, VGRGGGYFDY; each variant's own CDRs replace them letter for letter. The read-out is the apparent dissociation constant on a log10 scale (nM): the lower, the stronger. The mean shown is taken over the replicates in which the pair was detected. "ND" marks a missing value. The strain was present, yet no cells mated with the target were sequenced in that replicate, which points to weak or no binding.

CDR-H1,CDR-H2,CDR-H3,log10 Kd (nM) by replicate,mean log10 Kd (nM),empty controls
GFTKDDLAMH,GISWNGGSIGYADSVK,VGRGGGYFDY,1.11 1.08 0.62,0.94,0/9
GFTFDDYCMH,GISWNSGSIGYADSVK,VGRGGGYFSY,ND 4.02 ND,4.02,2/9 (4.15)
GFTFDDSAMH,GISWNSGSIGYAGSLK,VGRGGGYFDY,4.31 3.78 ND,4.05,1/9 (3.39)
GFTFDDYAYH,GISWNSGIIGYADSVK,GGRGGGYFDY,ND ND ND,ND,1/9 (4.87)
PFTFDWYAMC,GISWNSGSIGYADSVK,VGRGGGYFDY,ND ND 3.96,3.96,2/9 (4.47)
GFTFADYAMH,GISWNSRSIGYADSVK,VGRGAGYFDY,1.86 2.17 1.59,1.87,8/9 (5.18)
GFTFDDYEMH,GISWNDGWIGYADSVK,VGRGGGYFDY,ND ND ND,ND,1/9 (3.85)
GYTFDDYAMH,GISWPSGSIGYADSFK,VGRGGGYFDY,ND ND ND,ND,1/9 (3.57)
GFTFDDYAMH,GIMWNSGSIGYADSVK,VSRGGGYFDD,ND ND ND,ND,2/9 (4.44)
GFTFDDYAMH,GIQWNSGSGGYADSVK,VGRGGFYFDY,4.14 5.53 ND,4.83,4/9 (4.62)
GFTFADYAMH,GISWLSGSIGYADSVT,VGRGGGYFDY,4.13 4.04 3.71,3.96,4/9 (4.75)
GPTFDDYAMH,GISWNYGSIGYADSVK,VGRGGGSFDY,ND ND ND,ND,0/9
GFTFFNYAMH,GISWNSGSIGYADSVK,VGRGAGYFDY,ND ND ND,ND,2/9 (4.66)
GFTFDDLAMH,GITWNSGSIGYADSVK,VGCGGGYFDY,4.56 5.37 5.34,5.09,8/9 (5.03)
GFTFDDLAMM,GISWNSGSIGYADSVK,VGRGCGYFDY,ND ND ND,ND,2/9 (4.74)
GFTFDDYAMH,GISWNSGSIGYADPVK,HGRGGGYNDY,ND ND ND,ND,0/9
GFTFDDYAMH,GISENSGSIGYADSVK,VGRGGGYFDY,3.70 ND 4.58,4.14,2/9 (4.25)
GFTFDDYAMH,GCSWNSGSIGYADSVK,VGRIGGYEDY,4.55 6.15 ND,5.35,1/9 (4.52)
GFTFDDYAMH,GISWNSGIIGYADSVK,VIRGGGSFDY,ND ND ND,ND,0/9
GFTDDDYPMH,GISWNSGSIGYADSVK,VGRGGGLFDY,ND 5.02 ND,5.02,3/9 (4.10)
GFTFDDFAMH,GISWNSGSIGYADSKK,VGRGGGYNDY,5.07 ND ND,5.07,3/9 (4.27)
GFTMDDYNMH,GISQNSGSIGYADSVK,VGRGGGYFDY,4.40 ND ND,4.40,5/9 (4.87)
GFTFDDYAMH,MISWNSGSITYADSVK,VGAGGGYFDY,6.00 5.27 5.48,5.58,7/9 (4.54)
VFTFDYYAMH,GISWNSGSIGYADSVK,VGRGGGYFDY,5.76 ND 5.18,5.47,3/9 (4.77)
GFTFDDYAMH,GIDWNSGSIGYADSVK,VGPGGGEFDY,3.88 4.82 5.04,4.58,5/9 (4.35)
GFTFMDYAMH,GISWNSGSIVYADSVK,VGRGGLYFDY,ND 6.41 ND,6.41,4/9 (4.53)
GFTFDDYAMH,GISWASQSIGYADSVK,VARGGGYFDY,ND ND ND,ND,0/9
SFTFDDVAMH,GISWNSGSIGYAFSVK,VGRGGGYFDY,5.31 4.59 ND,4.95,6/9 (5.09)
GFTFDDYAMH,GISWNSGSIGNADSVK,VGQGGCYFDY,ND ND 4.59,4.59,0/9
GWTFDDYAMH,GISWNSGSIGYDDSVK,VGRGGGYYDY,4.97 4.58 ND,4.78,3/9 (4.82)
GFTFADYAMH,GISWNSGSIGYADSVK,FGRGGGYLDY,ND ND 3.58,3.58,0/9
GFTFDDYAMH,GISWTSGSIGYYYSVK,VGRGGGYFDY,ND ND 4.28,4.28,0/9
GFTFDDYAMH,GISWNSGSINYADSVK,VGRGGGYPYY,ND ND ND,ND,0/9
GFTFDDYAMH,NISWNWGSIGYADSVK,VGRGGGYRDY,ND ND ND,ND,1/9 (1.85)
GFTFDEYEMH,CISWNSGSIGYADSVK,VGRGGGYFDY,5.41 7.03 4.43,5.62,4/9 (5.09)
GFTFDDYAMH,GVSWNSGSAGYTDSVK,VGRGGGYFDY,3.07 ND ND,3.07,0/9
GGTFDDYAMH,GISWNSGSIGYADSVL,VGRGGGYFDY,3.26 2.80 3.65,3.24,2/9 (4.29)
GFQFDDYAMP,GISWNSGSIGPADSVK,VGRGGGYFDY,5.94 ND ND,5.94,3/9 (5.13)
GFTFDDYAMH,GIVWNSGSIGYADSVK,VGRGGGYCDW,4.77 5.61 ND,5.19,2/9 (4.37)
GFIFDDQAMH,GISWNSGSIGYADSVK,VGMGGGYFDY,1.96 2.05 1.47,1.83,5/9 (5.18)
GFTFDDYAMH,GISWNSGNIGYADSVK,VGRGMGYFDY,ND ND ND,ND,2/9 (4.47)
GFTFADYAMH,GISWNSGSIGYWDSVK,VGRGGGYFDY,ND 5.42 ND,5.42,4/9 (4.87)
MFTFDDYAMH,GISWNSGAIGYADSVG,VGRGGGYFDY,ND ND ND,ND,1/9 (5.05)
GHTFDDYAMH,GISWNSGSIGTADSVK,VGRGGGYFDY,2.13 2.06 1.97,2.05,5/9 (5.35)
GFTFDDYAMH,GRSWNSGSIAYADSVK,VGRGGGYFDY,ND ND ND,ND,0/9
GFTFDDYAMH,GISWNSGSIGYADSVK,VGRGFGYFDY,1.75 2.38 1.81,1.98,0/9
GFTFDDYLMH,GISWNSGSILYADSVK,VGRGGGYMDY,5.29 4.75 5.69,5.25,6/9 (4.75)
GFTFDDYAMS,GISWNSWSIAYADSVK,VGRGGGYFDY,5.35 ND 4.66,5.01,3/9 (4.52)
KFSFDIYAMH,GISWNSGSIGYADSVK,VGRGGGYFDY,ND ND ND,ND,0/9
GFTFDDYAMH,GISWNSGSIGYADSVK,VGRGGGRHDY,2.83 2.80 2.65,2.76,4/9 (5.25)

Empty control strains, which show no peptide, gave a signal in 21% of pairings with library AAYL51; the median was 4.54 and 95% of these signals were weaker than 3.26. No background was subtracted. Also given: how often the same scFv was detected with the empty control strains, with their mean in brackets. In this assay the parent's reference entry averaged 1.86; its copy inside this library read 0.88.